Results published in article PMC7160673, “A Degenerate Peptide Library Approach to Reveal Sequence Determinants of Methyllysine-Driven Protein Interactions” (Frontiers in Cell and Developmental Biology, 2020).

What was measured:
Type in all cases: binding
CDYL2 chromo = target: T1, CDYL2 chromo (Homo sapiens, UniProt Q8N8U2); assay: Histone peptide microarray, CDYL2 chromo; details: normalized histone peptide array signal, hits; hybridization with 1 M CDYL2 chromo (so in the source); two subarrays
T1 construct: 1-75; made in house; host or cells: E. coli BL21
T1 sequence (Q8N8U2 1-75): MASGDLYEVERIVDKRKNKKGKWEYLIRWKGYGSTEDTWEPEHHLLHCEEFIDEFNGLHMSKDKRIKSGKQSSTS
Procedure: (§1) Peptide microarrays were fabricated using an Aushon 2470 microarrayer and used as described ([Cornett et al., 2017]) with the following modifications. Protein and antibody hybridization steps were performed in buffer containing 25 mM HEPES pH 7.5, 100 mM NaCl, 0.5% BSA (w/v), and 0.1% NP-40. Slides were washed 3 × 5 min in PBS supplemented with 0.1% Tween-20 between each hybridization step. Antibodies used were primary anti-GST (Sigma #7781, 1:2,000 dilution) and an AlexaFluor 647-labeled secondary antibody (Life Technologies A-21245, 1:5,000 dilution). Arrays were scanned using an Innopsys InnoScan 110AL microarray scanner and analyzed using ArrayNinja ([Dickson et al., 2016]). Full lists of peptides queried by array analysis are in Supplementary Table S2.

MPP8 chromo = target: T2, MPP8 chromo (Homo sapiens, UniProt Q99549); assay: Histone peptide microarray, MPP8 chromo; details: normalized histone peptide array signal, hits; hybridization with 1 M MPP8 chromo (so in the source); two subarrays
T2 construct: 50-118; made in house; host or cells: E. coli BL21
T2 sequence (Q99549 50-118): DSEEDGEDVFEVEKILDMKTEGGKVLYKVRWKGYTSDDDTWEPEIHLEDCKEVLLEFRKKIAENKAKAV
Procedure: as §1

[1] = system: Abcam #ab8895, anti-H3K4me1; assay: Histone peptide microarray, Abcam ab8895; details: Abcam ab8895 (anti-H3K4me1) hits, average signal per peptide;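 note: normalized to the highest peptide average per subarray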
Procedure: as §1, with “Arrays were scanned using an Innopsys InnoScan 110AL microarray scanner and analyzed using ArrayNinja ([Dickson et al., 2016]).” left out

[2] = system: ABClonal #A2355, anti-H3K4me1; assay: Histone peptide microarray, ABclonal A2355; details: Abclonal A2355 (anti-H3K4me1) hits;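 note: normalized to the highest peptide average per subarray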
Procedure: as §1, with “Arrays were scanned using an Innopsys InnoScan 110AL microarray scanner and analyzed using ArrayNinja ([Dickson et al., 2016]).” left out

[3] = system: Active Motif #39161, anti-H3K9me3; assay: Histone peptide microarray, Active Motif 39161; details: Active Motif 39161 (anti-H3K9me3) hits;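 note: normalized to the highest peptide average per subarray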
Procedure: as §1, with “Arrays were scanned using an Innopsys InnoScan 110AL microarray scanner and analyzed using ArrayNinja ([Dickson et al., 2016]).” left out

| Substance | Avg Signal (CDYL2 chromo) | Avg Signal (MPP8 chromo) | Avg Signal [1] | Avg Signal [2] | Avg Signal [3] |
| --- | --- | --- | --- | --- | --- |
| ARTKQTARK(Me2)STGGKA-Peg-Biot [H3.1K9me2 H3.1(1-15)] | 0.1146 | 0.2383 |  |  |  |
| ARTKQTARKSTGGKAPR(Me2a)K(Ac)QLATKAA-Peg-Biot [H3.1R17me2aK18ac] |  |  | 0.2016 | 0.006138 | 0.007729 |
